scFv variants of Ab-91 (heavy chain) against a SARS-CoV-2 spike peptide

Binding partner: SARS-CoV-2 spike HR2 peptide, sequence PDVDLGDISGINAS.

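The starting antibody came from a phage panning campaign against this peptide. Library AAYL51 holds single substitutions and randomly drawn double and triple substitutions in the CDRs. The scFvs were displayed on barcoded MATa yeast, the peptide on MATalpha yeast. After mating in shaken culture at 30 °C for 16 h, diploids were selected and their barcode pairs sequenced. Scores were corrected for input abundance and mapped to Kd with protein pairs of known affinity run in the same pool. The assay was run in three technical replicates.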

The variants keep the light chain, the linker and the frameworks of Ab-91 (scFv order VL, three GGGGS repeats, VH).
VL: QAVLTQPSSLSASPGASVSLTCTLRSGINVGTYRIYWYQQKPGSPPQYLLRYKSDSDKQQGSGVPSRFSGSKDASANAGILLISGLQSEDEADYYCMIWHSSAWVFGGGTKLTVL
VH: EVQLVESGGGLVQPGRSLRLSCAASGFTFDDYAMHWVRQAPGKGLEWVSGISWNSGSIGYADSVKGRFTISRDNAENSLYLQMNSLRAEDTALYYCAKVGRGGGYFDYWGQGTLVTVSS

Changes read parent residue, position, new residue, counted from the first residue of the VH shown.
All variants listed here change G56 of the VH, counted from its first residue.
Values are apparent Kd, the geometric mean of the replicates that gave a signal; lower means stronger binding.
An entry "no signal" has no value in the source: the pair was not observed among the diploids in any replicate. This suggests poor binding but is not conclusive.
Parent in this assay: reference entry 72 nM, copy in this library 7.5 nM.

For G56Y+K65S, the assay gave no signal (0 of 3 replicates; controls 0 of 9).
For H35P+G56P+I58M, the assay gave no signal (0 of 3 replicates; controls 0 of 9).
For G56C+D62Y+Y105S, the assay gave 26 nM (3 of 3 replicates; controls 4 of 9).
For F27N+G56K, the assay gave no signal (0 of 3 replicates; controls 0 of 9).
For Y32M+G56W+V99K, the assay gave 60 µM (2 of 3 replicates; controls 3 of 9).
For G56K+A61C+D107G, the assay gave no signal (0 of 3 replicates; controls 2 of 9).
For G56L+S57E+D62T, the assay gave 2.8 nM (3 of 3 replicates; controls 1 of 9).
For H35G+G56E+I58T, the assay gave no signal (0 of 3 replicates; controls 2 of 9).
For D30L+N54F+G56P, the assay gave 140 µM (2 of 3 replicates; controls 4 of 9).
For G56E+R101I+Y105A, the assay gave 31 nM (3 of 3 replicates; controls 6 of 9).
For H35M+G56C+G104F, the assay gave 110 µM (1 of 3 replicates; controls 0 of 9).
For G56Q+G103W+F106E, the assay gave 25 nM (3 of 3 replicates; controls 0 of 9).
For F29N+G56A+I58R, the assay gave no signal (0 of 3 replicates; controls 1 of 9).
For G56M, the assay gave no signal (0 of 3 replicates; controls 0 of 9).
For G56N+D62M+V64M, the assay gave 570 nM (3 of 3 replicates; controls 3 of 9).
For D30Y+G56D+V64T, the assay gave 220 nM (2 of 3 replicates; controls 0 of 9).
For T28H+G56L+V64S, the assay gave 290 µM (1 of 3 replicates; controls 1 of 9).
For W53S+G56V+R101C, the assay gave no signal (0 of 3 replicates; controls 0 of 9).
For G56S+A61T+G102N, the assay gave 1.2 µM (1 of 3 replicates; controls 0 of 9).
For G50Q+G56Y+I58D, the assay gave no signal (0 of 3 replicates; controls 0 of 9).
For G56E+G102D+D107A, the assay gave 76 nM (3 of 3 replicates; controls 6 of 9).
For G56T+S57C+F106R, the assay gave no signal (0 of 3 replicates; controls 0 of 9).
For G56W+S57C+V64P, the assay gave no signal (0 of 3 replicates; controls 1 of 9).
For G56H+D62N+V99H, the assay gave 31 µM (1 of 3 replicates; controls 4 of 9).
For F29D+G56M+G102N, the assay gave 52 µM (2 of 3 replicates; controls 4 of 9).
For G56I+G59K+G104P, the assay gave 560 µM (1 of 3 replicates; controls 1 of 9).
For G56E+I58H, the assay gave 140 nM (3 of 3 replicates; controls 2 of 9).
For F29D+G56H+D107N, the assay gave no signal (0 of 3 replicates; controls 0 of 9).
For G50I+G56V+Y60H, the assay gave no signal (0 of 3 replicates; controls 2 of 9).
For F29N+G56I+Y105I, the assay gave 80 µM (1 of 3 replicates; controls 0 of 9).
For G56Y+S57L, the assay gave 63 nM (3 of 3 replicates; controls 2 of 9).
For Y32H+G56D, the assay gave 21 nM (3 of 3 replicates; controls 3 of 9).
For A33F+N54A+G56V, the assay gave 74 µM (2 of 3 replicates; controls 3 of 9).
For A33I+G56D+S63A, the assay gave 63 µM (3 of 3 replicates; controls 3 of 9).
For Y32M+I51F+G56T, the assay gave 79 µM (2 of 3 replicates; controls 2 of 9).
For F27C+G56H+R101M, the assay gave no signal (0 of 3 replicates; controls 0 of 9).
For T28P+S55W+G56P, the assay gave 25 µM (1 of 3 replicates; controls 5 of 9).
For D30Y+G56A+I58F, the assay gave 130 nM (3 of 3 replicates; controls 1 of 9).
For G50L+G56V+V64N, the assay gave no signal (0 of 3 replicates; controls 1 of 9).
For Y32H+G56E+K65D, the assay gave 250 µM (2 of 3 replicates; controls 3 of 9).
For G50F+G56M+Y108M, the assay gave no signal (0 of 3 replicates; controls 0 of 9).
For G56Y+R101D, the assay gave 59 nM (3 of 3 replicates; controls 1 of 9).

Empty control strains, which show no peptide, gave a signal in 21% of pairings with library AAYL51; the median was 34 µM and 95% of these signals were weaker than 1.8 µM. No background was subtracted. Also given: how often the same scFv was detected with the empty control strains.

Values reported by Engelhart et al. 2022, doi:10.1038/s41597-022-01779-4 (FLAb copy).